1 molecule from US20190192521A1, “Methods of Treating Arid1A-Mutated Cancers With HDAC6 Inhibitors and EZH2 Inhibitors” (The Wistar Institute of Anatomy and Biology, priority 2016, published 2019) can be followed below.

In this assay the target is T1, human HDAC6 (Homo sapiens, UniProt Q9UBN7).
T1 construct: made in house
T1 sequence (Q9UBN7 1-1215): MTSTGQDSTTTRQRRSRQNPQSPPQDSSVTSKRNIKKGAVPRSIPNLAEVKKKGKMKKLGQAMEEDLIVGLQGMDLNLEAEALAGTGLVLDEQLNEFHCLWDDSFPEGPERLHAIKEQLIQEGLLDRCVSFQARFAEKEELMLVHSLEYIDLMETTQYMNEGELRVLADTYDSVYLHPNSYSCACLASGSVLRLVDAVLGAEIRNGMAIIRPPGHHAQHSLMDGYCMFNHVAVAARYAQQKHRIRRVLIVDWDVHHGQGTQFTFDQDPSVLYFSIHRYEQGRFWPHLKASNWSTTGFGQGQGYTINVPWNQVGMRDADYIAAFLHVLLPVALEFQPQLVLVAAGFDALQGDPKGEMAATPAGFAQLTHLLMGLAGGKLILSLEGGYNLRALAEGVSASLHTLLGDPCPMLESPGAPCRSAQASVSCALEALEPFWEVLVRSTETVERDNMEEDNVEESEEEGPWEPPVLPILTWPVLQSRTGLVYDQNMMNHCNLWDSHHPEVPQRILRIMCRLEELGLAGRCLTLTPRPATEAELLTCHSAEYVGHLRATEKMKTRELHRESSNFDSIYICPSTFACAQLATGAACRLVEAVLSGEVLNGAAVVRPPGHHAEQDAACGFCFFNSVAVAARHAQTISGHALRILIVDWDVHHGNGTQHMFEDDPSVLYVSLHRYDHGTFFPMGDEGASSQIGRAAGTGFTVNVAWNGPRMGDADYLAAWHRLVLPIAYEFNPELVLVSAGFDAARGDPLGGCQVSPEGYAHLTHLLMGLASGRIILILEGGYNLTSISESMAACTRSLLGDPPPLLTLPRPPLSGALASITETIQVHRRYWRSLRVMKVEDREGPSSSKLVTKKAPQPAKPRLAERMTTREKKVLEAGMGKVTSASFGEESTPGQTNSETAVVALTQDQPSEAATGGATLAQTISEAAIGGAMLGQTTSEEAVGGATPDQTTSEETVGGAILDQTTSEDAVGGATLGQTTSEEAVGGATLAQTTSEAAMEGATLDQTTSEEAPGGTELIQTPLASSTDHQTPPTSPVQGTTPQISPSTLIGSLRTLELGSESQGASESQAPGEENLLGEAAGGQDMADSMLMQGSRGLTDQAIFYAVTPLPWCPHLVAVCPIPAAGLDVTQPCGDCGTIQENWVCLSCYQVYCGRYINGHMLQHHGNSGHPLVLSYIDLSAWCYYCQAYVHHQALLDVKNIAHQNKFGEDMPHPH
The assay is described as follows: in vitro biochemical HDAC6 deacetylation assay (LC-MS). The conditions noted are these: 10 μM inhibitor, 0.05 μM HDAC6, 100 μM substrate. The protocol: Deacetylation reactions were detected by discontinuous liquid chromatography-mass spectrometry (LC-MS). The negative control assay was run in the presence of the HDAC6 inhibitor rocilinostat (ACY1215). All assays were performed in triplicates.
In vitro biochemical HDAC6 deacetylation assays were performed as follows. Activity assay with human HDAC6 was based on a discontinuous liquid chromatography-mass spectrometry (LC-MS) assay as reported in Hai and Christianson, 2016. Briefly, 0.05 μM of HDAC6 was incubated with 100 μM of substrate Ac-LHSGTAK(ac)SVT-COOH in HEPES buffer [20 mM HEPES (pH 7.5), 100 mM NaCl, 5 mM KCl, 1 mM MgCl2] for 20 min at room temperature, and the reaction was quenched by the addition of acetonitrile (equal volume to the reaction solution). The deacetylation reaction mixtures were detected by (LC-MS) using a Waters SQD equipped with an Acquity UPLC (Waters, Milford, Mass., USA) and quantified by using the standard curves generated from the mass signals of the corresponding deacetylated synthetic peptide (Ac-[…]-COOH). The assay was run in the presence of 10 μM of HDAC6 specific inhibitor ACY-1215 as a negative control. All the assays were performed in triplicates. The peptide was custom synthesized by Genscript. The human HDAC6 construct was expressed and purified as described in Hai and Christianson, 2016.

With `O=C(CCCCCCNC(=O)c1cnc(N(c2ccccc2)c2ccccc2)nc1)NO` [rocilinostat, 2-(diphenylamino)-N-(7-(hydroxyamino)-7-oxoheptyl)pyrimidine-5-carboxamide], the “inhibition of HDAC6 deacetylation of p53K120Ac peptide” value is “prevented HDAC6 from removing the p53K120Ac modification”. Moreover, under “listed as ACY1215”, the “inhibition of HDAC6 deacetylation of p53K120Ac peptide” value is on record as “blocked this activity”.
